Consider one compound from patent EP1790337A2, “Methods and compounds for treating depression and other disorders” (priority 1998, dated 2000).

The chains behind the UniProt entries cited, without tags or fusion partners. Residues count along the entry.
UniProt H0WCX4, 1-619: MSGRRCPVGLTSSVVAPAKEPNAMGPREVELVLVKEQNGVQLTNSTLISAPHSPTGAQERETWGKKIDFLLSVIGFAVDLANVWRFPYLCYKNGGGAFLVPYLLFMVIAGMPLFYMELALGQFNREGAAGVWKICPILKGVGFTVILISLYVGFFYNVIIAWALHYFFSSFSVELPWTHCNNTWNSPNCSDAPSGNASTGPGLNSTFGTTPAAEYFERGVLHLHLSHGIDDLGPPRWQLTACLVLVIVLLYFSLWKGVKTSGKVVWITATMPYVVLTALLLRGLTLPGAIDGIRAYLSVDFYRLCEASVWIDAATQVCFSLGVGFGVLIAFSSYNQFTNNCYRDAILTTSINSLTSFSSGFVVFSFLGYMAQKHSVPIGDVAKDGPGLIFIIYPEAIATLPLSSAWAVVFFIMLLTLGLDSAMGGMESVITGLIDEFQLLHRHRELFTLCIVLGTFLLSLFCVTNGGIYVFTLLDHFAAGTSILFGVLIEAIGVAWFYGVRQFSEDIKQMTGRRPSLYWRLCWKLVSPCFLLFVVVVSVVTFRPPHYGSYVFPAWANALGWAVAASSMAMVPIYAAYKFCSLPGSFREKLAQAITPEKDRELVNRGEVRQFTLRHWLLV

This test addresses dopamine transporter site (Cavia porcellus, UniProt H0WCX4). The experiment in a line: Dopamine reuptake inhibition assay ([3H]WIN 35428 binding, striatal membranes). The arrangement: species or system Guinea pig. As to conditions: @ 100 nM (top number); read-out: DA Uptake, mean % inhibition.

Each structure is given as a SMILES string.

On to `CNCCC(Oc1ccc(C(F)(F)F)cc1)c1ccccc1` (stereo not shown) [Fluoxetine], for which the inhibition – broadly, the change of the read-out against control, counted positive when it falls – at 0.1 µM was found to be 0%.
